# Test system: Phosphodiesterase (PDE) IV
# Assay: Action to Phosphodiesterase (PDE) IV Enzyme Activities (3H-cAMP hydrolysis, enzyme from U-937 cells)
# Type: biochemical
# Details: read-out: PDE IV inhibitory activity IC50; human histiocytic lymphoma (U-937) cytoplasm fraction enzyme; 0.4 μM 3H-cAMP; pH 8.0; 15 minutes at 30° C.
# Description: Action to Phosphodiesterase (PDE) IV Enzyme Activities
# Enzyme was partialy purified from human histiocytic lymphoma(U-937) cytoplasm fraction by means of the Q-sepharose column according to the method of Nicholson and collaborators [Br. J. Pharmacol., 97, 889 (1989)], and was reacted in a solution of 0.1 mg/ml BSA (bovine serum albumin), 1 mM EDTA (ethylenediaminetetra acetic acid), 5 mM MgCl2 and 50 mM Tris-buffer (pH 8.0) for 15 minutes at 30° C. using 0.4 μM ^3 H-cAMP as substrate according to the method of Hidaka and collaborators [Biochem. Med., 10, 301 (1974)]. ^3 H-5'-AMP generated was separated by means of the cation exchange column, and the enzyme activity was determined by measuring a radioactivity amount.
# A test compound was added. After incubation for 15 minutes at 30° C., the substrate was added. Inhibition ratios were derived for respective concentrations assuming that the reaction without the test compound was 100%. By using the probit analysis, the concentration (IC50) showing the inhibition rate of 50% was derived.
compound,measurement,value
COc1ccc(C2CCN(C(=O)Oc3cccnc3)C2)cc1OC1CCCC1 (stereo not shown),IC50,14 nM

# Source: US5545647A, “3-phenylpyrrolidine derivatives” (Mitsubishi Chemical Corporation, priority 1994, dated 1996)
